Article PMC7472415 (Viruses, 2020)
pKd: −log10 of the molar value.

Target: YFP-D/NP_TAIL, yellow fluorescent protein fused to the nucleoprotein tail of D/bovine/France/2986/20 (influenza D virus D/bovine/France/2986/2012)
Experiment: fluorescence polarisation

human importin-α1 without its importin-β binding (IBB) domain (residues 69 to 529) (from UniProt P52292 69-529) (domain or fragment)
pKd: 7.39
